From patent publication US9420796B2 (priority 2013, dated 2016)

Key:
juvenile zebra mussels = assay: Juvenile mussel exposure to chlorine on colonized PVC plates; conditions: chlorine at 1 mg/l; 8 to 12° C.; mussels 0.75 to 5 mm
Protocol: The effect of chlorine on juvenile mussels was carried out at a nominal total chlorine residual of 1.0 mg/l.
The small size of juvenile mussels (1-5 mm) presented the problem of containment of the animals during exposure to chlorine. Vials perforated with many tiny holes were deemed impractical for two reasons. First, the tiny holes may inhibit the desired circulation of chlorinated water within the vial. Second, the small mussels would be difficult to remove from such vials if they were attached by byssal threads. It was decided that a suitable experimental unit was a small PVC plate that could be colonized by an appropriate number of juvenile mussels. PVC plates could be submerged for uniform exposure and were sampled easily as the small mussels slid off the plates with minimal force.
The mussels were colonized on to plates as two size classes, 0.75-2.0 mm and 2.5-5.0 mm. […]
The mussels were subjected to a continuous dose of 1.0 mg/chlorine. […] Total chlorine residual concentrations were monitored daily using the portable amperometric chlorine analyzer. […]
The sampling procedure involved randomly selecting one plate of each size class from one of the three experimental tanks. […] The condition of the other mussels was determined by their activity in the next 24 hours. […] The length of each mussel was measured to the nearest half millimeter.

zebra mussel veligers [1] = assay: Quantification of veligers in baffled tank sediments after chlorination; conditions: for Veligers in sediments after chlorination: after seven days
zebra mussel veligers [2] = assay: Effluent veliger density in continuous-flow baffled tanks receiving chlorine; conditions: for Mean Percent Removed: loss relative to control tank
Protocol: All experiments were conducted at a County Water Authority's water treatment plant. A continuous supply of approximately 29,000 liters per day (7600 US gal/day) was needed to carry out this work. Raw water for the study was obtained by tapping into the main water conduit as it entered the plant. An existing unused polymer injection line was plumbed with a ¾ in (18 mm) schedule 40 PVC pipe. A water shut off valve was put at the point where the PVC pipe coupled with polymer line so that the entire system could be dewatered if necessary.
The 18 mm PVC water supply line was plumbed into a manifold system which fed three 60 liter constant head tanks, each fitted with standpipe overflow drains. Ball valves were installed at the point of inflow allowing for better flow control. Four 30 liter baffled tanks were fed from each constant head tank (see FIG. 1). Flow to each baffled tank was controlled by a 12.5 mm (½ in) ball valve installed at the base of the head tank. Equal length (approximately 915 mm or 36 inches) 12.5 mm Tygon tubing delivered raw water (containing veligers) from the constant head tanks to the baffled tanks.
A fifth outflow valve for obtaining veliger density samples was fitted to each constant head tank. The baffled tanks were constructed of plexiglass and had dimensions of approximately 762 mm×300 mm×264 mm (2.5×1×0.88 ft). Each tank was fitted with 5 alternating vertical baffles (see FIG. 2). The flow rate through the tanks was maintained at 1 l/min. The alternating baffles produced a serpentine flow through the tanks with a mean calculated hydraulic residence time of 30 minutes. The effluent of the tanks drained into a collection system and discharged into a sump.
For all experiments, each group of four baffled tanks was considered one experimental unit. One of the baffled tanks was utilized as a control and received no oxidant while the other three served as replicates for a given oxidant dose.
Chlorine stock solutions were prepared by diluting aqueous sodium hypochlorite in filtered raw water. A variable speed peristaltic pump was utilized to continuously pump the stock solution into the system. Injection tees were fabricated from 12.5 mm (½ in) PVC tee fittings and small glass tubing. The tees were spliced into the Tygon tubing approximately half-way between the constant head tank and the baffled tank. This point of injection insured the mixing of stock chlorine solution and raw water before entering the experimental baffled tanks.
The effect of chlorine on veligers was tested at five nominal total chlorine residual concentrations: 0.1, 0.2, 0.5, 0.75 and 1.0 mg/l. Because the inhibition of settlement was one objective of these tests, the experiments were run for seven days.
One method of determining the fate of the veligers passing through the baffled tanks was based on sampling the tank effluent. This was done by placing a fine mesh sieve (initially 74 microns later 63 microns) under the effluent and allowing the effluent to be filtered for 15 to 30 minutes. During chlorination, the time period was 20 to 30 minutes. This time period allowed 20 to 30 liters of water to be filtered.
The material, including veligers, collected in the sieve was resuspended in approximately 20 ml of previously filtered raw water. The concentrated veligers then were counted and densities estimated in the same manner as constant head tank samples.

chlorine
Time of continuous application required to kill juvenile zebra mussels (juvenile zebra mussels): over 25 days
Veligers in sediments after chlorination (zebra mussel veligers [1]; 0.2 mg/L Cl2, Area #1): 554 veligers per cm^2
Veligers in sediments after chlorination (zebra mussel veligers [1]; 0.2 mg/L Cl2, Area #2): 90 veligers per cm^2
Veligers in sediments after chlorination (zebra mussel veligers [1]; 0.2 mg/L Cl2, Area #3): 2.2 veligers per cm^2
Veligers in sediments after chlorination (zebra mussel veligers [1]; 1 mg/L Cl2, Area #1): 1887 veligers per cm^2
Veligers in sediments after chlorination (zebra mussel veligers [1]; 1 mg/L Cl2, Area #2): 120 veligers per cm^2
Veligers in sediments after chlorination (zebra mussel veligers [1]; 1 mg/L Cl2, Area #3): 3.4 veligers per cm^2
Missing veligers accounted for by sediments in the first section of the tank (zebra mussel veligers [1]; 1.0 mg/l chlorine test): 48%
Veligers that entered the baffled tanks observed in the tank effluents (zebra mussel veligers [2]; all the chlorine tests): less than 5%
Concentration at which settlement of veligers and early stage bivalves is inhibited (zebra mussel veligers [2]; as shown in Example 2): ≥ 0.1 mg/L
Percent loss of veligers relative to control (zebra mussel veligers [2]; chlorine concentrations ranging from 0.1 to 1.0 mg/l): over 97%
Reduction in veliger numbers compared to controls (zebra mussel veligers [2]; doses over 0.1 mg/l): over 97%
Effluent veliger concentration, tanks receiving chlorine, mean (zebra mussel veligers [2]; nominal chlorine 0.1 mg/L): 0 number/L
Mean Percent Removed (zebra mussel veligers [2]; nominal chlorine 0.1 mg/L): 100%
Effluent veliger concentration, tanks receiving chlorine, mean (zebra mussel veligers [2]; nominal chlorine 0.2 mg/L): 0.05 number/L
Mean Percent Removed (zebra mussel veligers [2]; nominal chlorine 0.2 mg/L): 99.8%
Effluent veliger concentration, tanks receiving chlorine, mean (zebra mussel veligers [2]; nominal chlorine 0.5 mg/L): 1.10 number/L
Mean Percent Removed (zebra mussel veligers [2]; nominal chlorine 0.5 mg/L): 97.5%
Effluent veliger concentration, tanks receiving chlorine, mean (zebra mussel veligers [2]; nominal chlorine 0.75 mg/L): 0 number/L
Mean Percent Removed (zebra mussel veligers [2]; nominal chlorine 0.75 mg/L): 100%
Mean Percent Removed (zebra mussel veligers [2]; nominal chlorine 1.0 mg/L): 99.9% and 100%

“And” between values parts separate entries of the source, which are not always exact repeats. Equal values may be shown once.
